Values quoted from earlier work in patent US9629872B2, “Sodium thiosulphate for the treatment of ectopic calcifications” (Institut National de la Sante et de la Recherche Medicale …, priority 2012, dated 2017).

Conditions: at 20° C.; cited from earlier work

## Sodium thiosulfate pentahydrate
  solubility in water: 780 g/L
